Measured values from PMC7709103.

Biological target: Natalizumab, a recombinant IgG4 with a native human IgG4 hinge
Assay: Förster resonance energy transfer (FRET) Fab arm exchange assay
Details: 1 mM glutathione reducing conditions (Reduced bars); parent: est. 27; read off a plot

response: 6.7 RFU
Substance: hinge deleted humanized IgG4 mAb (kappa light chain) R409K
